{
  "source": "patent US9353061B2",
  "about": "“3,5,N-trihydroxy-alkanamide and derivatives: method for making same and use thereof” (Academia Sinica, priority 2012, dated 2016)",
  "system": "HS68 normal human fibroblast cells",
  "type": "cell-based",
  "details": "ratio of IC50 values, cancer cell and normal cell",
  "data": [
    {"smiles": "CCC(C)(C)C(=O)O[C@H]1C[C@@H](C)C=C2C=C[C@H](C)[C@H](CC[C@@H](O)C[C@@H](O)CC(=O)NO)[C@H]21", "note": "[Simva-HA, (3R,5R)-7-{(1S,2S,6R,8S,8aR)-Hexahydro-2,6-dimethyl-8-[2-dimethylbutyryloxy]naphthalenyl}-3,5-dihydroxy-N-hydroxyheptanamide]", "values": [
      {"measurement": "SI A549/HS68 (selectivity index)", "value": ">5.0"}
    ]}
  ]
}
